Source: US8921376B2, “Pyrrolopyridines useful as inhibitors of protein kinase” (Vertex Pharmaceuticals Incorporated, priority 2005, dated 2014)

Amino acid sequences for entries named in this document (tags omitted).
UniProt P52333, whole entry: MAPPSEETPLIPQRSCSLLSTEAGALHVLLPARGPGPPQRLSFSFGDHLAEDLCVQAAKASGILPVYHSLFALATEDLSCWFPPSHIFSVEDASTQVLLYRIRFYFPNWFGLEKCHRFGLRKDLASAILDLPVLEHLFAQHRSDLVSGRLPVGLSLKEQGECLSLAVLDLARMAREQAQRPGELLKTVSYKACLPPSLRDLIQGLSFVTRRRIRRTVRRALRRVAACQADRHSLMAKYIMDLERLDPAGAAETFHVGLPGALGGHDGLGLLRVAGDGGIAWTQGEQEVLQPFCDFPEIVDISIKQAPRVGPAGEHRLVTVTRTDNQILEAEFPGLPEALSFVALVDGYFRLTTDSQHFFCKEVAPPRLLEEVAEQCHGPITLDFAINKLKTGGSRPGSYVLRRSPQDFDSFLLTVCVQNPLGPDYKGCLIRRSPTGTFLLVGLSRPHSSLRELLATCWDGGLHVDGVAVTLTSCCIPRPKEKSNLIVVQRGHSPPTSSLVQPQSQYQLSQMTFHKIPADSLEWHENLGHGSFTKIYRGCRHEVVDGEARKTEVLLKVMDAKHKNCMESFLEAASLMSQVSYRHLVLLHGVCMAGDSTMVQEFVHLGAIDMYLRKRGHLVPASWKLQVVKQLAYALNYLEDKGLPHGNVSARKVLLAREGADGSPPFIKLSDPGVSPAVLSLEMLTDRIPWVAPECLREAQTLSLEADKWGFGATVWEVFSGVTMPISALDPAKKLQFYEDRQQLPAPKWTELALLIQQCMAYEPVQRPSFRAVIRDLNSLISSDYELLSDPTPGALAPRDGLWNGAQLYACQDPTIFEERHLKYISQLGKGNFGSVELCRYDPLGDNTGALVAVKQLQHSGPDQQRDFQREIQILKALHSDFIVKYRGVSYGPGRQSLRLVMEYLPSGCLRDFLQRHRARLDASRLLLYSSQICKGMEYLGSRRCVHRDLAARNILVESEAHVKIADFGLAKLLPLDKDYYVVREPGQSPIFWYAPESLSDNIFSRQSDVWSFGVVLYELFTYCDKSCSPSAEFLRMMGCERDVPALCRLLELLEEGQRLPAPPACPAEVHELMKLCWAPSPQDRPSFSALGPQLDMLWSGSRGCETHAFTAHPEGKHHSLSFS
UniProt Q13464, whole entry: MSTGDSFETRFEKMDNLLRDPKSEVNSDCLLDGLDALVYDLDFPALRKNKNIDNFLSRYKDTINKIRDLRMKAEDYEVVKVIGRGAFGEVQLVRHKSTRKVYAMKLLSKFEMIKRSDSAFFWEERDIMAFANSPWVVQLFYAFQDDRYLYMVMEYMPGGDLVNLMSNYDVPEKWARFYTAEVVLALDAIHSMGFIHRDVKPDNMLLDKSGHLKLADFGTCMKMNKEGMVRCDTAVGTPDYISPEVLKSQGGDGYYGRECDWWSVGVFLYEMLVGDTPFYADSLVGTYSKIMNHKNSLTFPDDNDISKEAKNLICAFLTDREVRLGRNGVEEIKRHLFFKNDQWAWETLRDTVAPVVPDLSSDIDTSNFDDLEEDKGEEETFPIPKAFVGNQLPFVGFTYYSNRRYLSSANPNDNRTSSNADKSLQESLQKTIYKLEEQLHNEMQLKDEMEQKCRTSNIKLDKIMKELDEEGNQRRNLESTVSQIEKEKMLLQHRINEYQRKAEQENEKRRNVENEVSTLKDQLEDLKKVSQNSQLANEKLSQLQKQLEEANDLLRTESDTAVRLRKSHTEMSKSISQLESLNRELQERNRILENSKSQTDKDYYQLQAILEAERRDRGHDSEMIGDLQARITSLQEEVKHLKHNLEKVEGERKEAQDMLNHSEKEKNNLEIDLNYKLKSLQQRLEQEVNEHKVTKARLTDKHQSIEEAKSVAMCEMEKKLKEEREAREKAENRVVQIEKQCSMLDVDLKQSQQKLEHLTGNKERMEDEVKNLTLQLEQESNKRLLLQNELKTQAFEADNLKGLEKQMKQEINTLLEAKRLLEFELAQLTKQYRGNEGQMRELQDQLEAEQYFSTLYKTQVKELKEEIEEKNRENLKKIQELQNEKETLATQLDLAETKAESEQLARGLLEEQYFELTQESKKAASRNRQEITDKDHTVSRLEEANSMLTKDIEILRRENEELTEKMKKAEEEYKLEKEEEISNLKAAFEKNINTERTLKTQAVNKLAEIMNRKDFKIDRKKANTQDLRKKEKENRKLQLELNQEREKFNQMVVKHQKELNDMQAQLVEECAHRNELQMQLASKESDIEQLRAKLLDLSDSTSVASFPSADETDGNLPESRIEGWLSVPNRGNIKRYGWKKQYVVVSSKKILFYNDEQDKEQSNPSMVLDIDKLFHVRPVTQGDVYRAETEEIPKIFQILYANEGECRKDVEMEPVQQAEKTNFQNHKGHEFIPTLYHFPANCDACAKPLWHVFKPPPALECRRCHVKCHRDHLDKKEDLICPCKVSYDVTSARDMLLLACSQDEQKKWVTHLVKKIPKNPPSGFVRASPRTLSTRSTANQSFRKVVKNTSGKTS
UniProt O60674, whole entry: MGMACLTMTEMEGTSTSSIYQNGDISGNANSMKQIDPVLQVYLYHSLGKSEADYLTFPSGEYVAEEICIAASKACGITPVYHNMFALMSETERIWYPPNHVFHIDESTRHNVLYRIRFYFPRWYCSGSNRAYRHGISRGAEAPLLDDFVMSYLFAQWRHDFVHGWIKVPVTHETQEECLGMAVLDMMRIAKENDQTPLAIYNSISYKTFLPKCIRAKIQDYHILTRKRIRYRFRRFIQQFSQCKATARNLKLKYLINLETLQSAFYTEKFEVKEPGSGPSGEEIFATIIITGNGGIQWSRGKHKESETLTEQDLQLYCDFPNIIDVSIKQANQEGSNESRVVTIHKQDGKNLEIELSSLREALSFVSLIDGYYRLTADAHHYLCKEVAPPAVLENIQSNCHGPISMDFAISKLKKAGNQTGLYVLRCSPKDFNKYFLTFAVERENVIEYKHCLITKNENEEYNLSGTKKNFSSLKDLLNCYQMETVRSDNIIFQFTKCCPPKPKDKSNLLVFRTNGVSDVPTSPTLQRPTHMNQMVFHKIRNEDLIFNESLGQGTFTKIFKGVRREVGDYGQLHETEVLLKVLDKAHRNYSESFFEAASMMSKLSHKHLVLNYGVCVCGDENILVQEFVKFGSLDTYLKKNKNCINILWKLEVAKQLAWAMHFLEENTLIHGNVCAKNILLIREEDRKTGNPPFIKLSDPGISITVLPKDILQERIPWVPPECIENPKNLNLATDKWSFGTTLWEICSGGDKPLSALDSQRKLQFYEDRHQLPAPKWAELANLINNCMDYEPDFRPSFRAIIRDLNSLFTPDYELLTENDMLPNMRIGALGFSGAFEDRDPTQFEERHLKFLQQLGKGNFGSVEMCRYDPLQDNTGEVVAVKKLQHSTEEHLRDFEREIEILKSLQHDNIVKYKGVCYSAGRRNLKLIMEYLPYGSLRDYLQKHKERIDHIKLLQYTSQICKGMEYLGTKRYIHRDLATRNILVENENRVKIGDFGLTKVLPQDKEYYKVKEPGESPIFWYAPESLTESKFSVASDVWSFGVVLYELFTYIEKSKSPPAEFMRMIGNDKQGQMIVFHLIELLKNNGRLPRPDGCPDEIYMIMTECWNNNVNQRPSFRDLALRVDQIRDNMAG

Columns and labels:
JAK3 = JAK3 (Homo sapiens, UniProt P52333); assay: JAK3 inhibition assay (33P incorporation into poly(Glu)4Tyr); details: read-out: JAK3 Ki; Table 6; enzyme inhibition data (Ki)
ROCK I = ROCK I (Homo sapiens, UniProt Q13464); assay: ROCK-I inhibition assay (radioactive enzyme assay, MBP substrate); details: read-out: ROCK I Ki; Table 6; enzyme inhibition data (Ki)
Protocol: Compounds were screened for their ability to inhibit ROCK using a standard radioactive enzyme assay. Assays were carried out in a solution containing 100 mM HEPES (pH 7.5), 10 mM MgCl2, 25 mM NaCl, 2 mM DTT, and 1.5% DMSO. Final substrate concentrations in the assay were 13 μM [γ-^33P] ATP (25 mCi ^33P ATP/mmol ATP, Perkin Elmer, Cambridge, Mass./Sigma Chemicals, St Louis, Mo.) and 27 μM Myelin Basic Protein (MBP). Final enzyme concentration in the assay was 5 nM ROCK. Assays were carried out at room temperature. 1.5 μl of DMSO stock containing serial dilutions of the compound of the present invention (concentrations ranging from 10 μM to 2.6 nM) was placed in a 96 well plate. 50 μl of Solution 1 (100 mM HEPES (pH 7.5), 10 mM MgCl2, […]) was added to the plate. The reaction was initiated by addition of 50 μl of Solution 2 (100 mM HEPES (pH 7.5), 10 mM MgCl2, 4 mM DTT, […] and 10 nM ROCK). After 2 hours the reaction was quenched with 50 μL of 30% trichloroacetic acid (TCA, Fisher) containing 9 mM ATP. Transfer of 140 μL of the quenched reaction to a glass fiber filter plate (Corning, Cat. No. 3511) was followed by washing 3 times with 5% TCA. 50 μl of Optima Gold scintillation fluid (Perkin Elmer) was added and the plates were counted on a Top Count (Perkin Elmer). […]

JAK2 = JAK2 (Homo sapiens, UniProt O60674); assay: JAK2 inhibition assay (as Example 3 with JAK-2 enzyme); details: read-out: JAK2 Ki; Table 6; enzyme inhibition data (Ki)

Measured: Ki

Clc1cnc2[nH]ccc2c1N[C@H]1CCN(Cc2ccccc2)C1
< 500 nM: all assays above
